Assay results as given in ChEMBL document CHEMBL1128272, “Stereoselective LSD-like activity in a series of d-lysergic acid amides of (R)- and (S)-2-aminoalkanes” (J Med Chem, 1995).

Sequences of proteins named here, by UniProt entry; tags and fusion partners are left off.
UniProt P14842, whole entry: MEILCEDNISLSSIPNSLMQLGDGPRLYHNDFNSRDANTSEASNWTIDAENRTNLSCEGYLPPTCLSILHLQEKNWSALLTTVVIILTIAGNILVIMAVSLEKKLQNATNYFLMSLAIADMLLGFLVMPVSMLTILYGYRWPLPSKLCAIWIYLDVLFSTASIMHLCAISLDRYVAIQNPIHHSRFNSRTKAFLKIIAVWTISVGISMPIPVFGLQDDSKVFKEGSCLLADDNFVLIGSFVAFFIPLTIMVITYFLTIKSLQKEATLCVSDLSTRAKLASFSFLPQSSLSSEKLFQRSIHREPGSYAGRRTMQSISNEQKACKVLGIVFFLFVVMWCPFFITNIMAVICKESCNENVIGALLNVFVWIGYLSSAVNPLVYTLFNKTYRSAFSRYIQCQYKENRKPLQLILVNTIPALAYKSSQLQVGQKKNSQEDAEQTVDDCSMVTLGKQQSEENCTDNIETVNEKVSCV

Molecular target: 5-hydroxytryptamine receptor 2A (Rattus norvegicus, UniProt P14842)
Assay: Binding affinity was measured against 5-hydroxytryptamine 2A receptor by displacement of [3H]- ketanserin by lysergic acid amides
In short: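 Rat frontal cortex membranes from pooled male Sprague-Dawley rats, preincubated at 37 °C, in 50 mM Tris HCl (pH 7.4) with 0.5 mM Na2EDTA, 0.1% ascorbate, 10 μM pargyline and 5.7 mM CaCl2. Displacement of 0.75 nM [3H]ketanserin with 200–400 μg protein for 15 min at 37 °C, then GF/C filtration. Triplicates. Three to four experiments combined.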

CCN(CC)C(=O)[C@@H]1C=C2c3cccc4[nH]cc(c34)C[C@H]2N(C)C1 [LYSERGIDE]
Ki: 4.4 nM
